Source: BindingDB's records for doi:10.1016/j.bmcl.2010.12.109 (Ono Pharmaceutical, 2011)

Assay: Antagonist activity at human CCR5 expressed in HOS cells assessed as inhibition of cell fusion with HIV gp120 expressing HEK293 cells by LTR luciferase assay

CCCCN1C(=O)[C@H](CC2CCCCC2)NC(=O)C12CCN(Cc1ccc(Oc3ccc(C(=O)O)cc3)cc1)CC2 [4-(4-{[(3S)-1-Butyl-3-(cyclohexylmethyl)-2,5-dioxo-1,4,9-triazaspiro[5.5]undec-9-yl]methyl}phenoxy)benzoic acid hydrochloride]
IC50: 87.1 nM

Where a name gives a salt, the structure may show the parent alone.
